The experiment addresses cardiac myosin ATPase (Bos taurus (Bovine), UniProt Q9BE39). The note with it: read-out: IC50 of the inhibitory effect on cardiac myosin ATPase activity; cardiac myosin S1 with actin/cardiac tropomyosin/troponin complex, 37° C., 360 nm.

pIC50: −log10 of the molar value.

This passage reports IC50 results from patent US20250154108A1 (priority 2022, published 2025).

A word on the pIC50: it is −log10 of the IC50, conventionally taken in molar units.

With `C[C@H](NC1=CC(=O)C2(CCCC2)C(=O)N1)c1cc(F)ccc1F` [Compound of formula (I)], the pIC50 was 6.66.
